From ChEMBL document CHEMBL4308853, “Design, Synthesis, and Pharmacological Evaluation of Novel β2/3 Subunit-Selective γ-Aminobutyric Acid Type A (GABAA) Receptor Modulators” (J Med Chem, 2018)

Protein sequences, listed by entry. Tags and fused reporters are not part of them. Lines headed by an entry give the natural chain unless they say otherwise; changes in a name come on top. Residues count along the entry.
UniProt P14867, 28-456 limits assumed: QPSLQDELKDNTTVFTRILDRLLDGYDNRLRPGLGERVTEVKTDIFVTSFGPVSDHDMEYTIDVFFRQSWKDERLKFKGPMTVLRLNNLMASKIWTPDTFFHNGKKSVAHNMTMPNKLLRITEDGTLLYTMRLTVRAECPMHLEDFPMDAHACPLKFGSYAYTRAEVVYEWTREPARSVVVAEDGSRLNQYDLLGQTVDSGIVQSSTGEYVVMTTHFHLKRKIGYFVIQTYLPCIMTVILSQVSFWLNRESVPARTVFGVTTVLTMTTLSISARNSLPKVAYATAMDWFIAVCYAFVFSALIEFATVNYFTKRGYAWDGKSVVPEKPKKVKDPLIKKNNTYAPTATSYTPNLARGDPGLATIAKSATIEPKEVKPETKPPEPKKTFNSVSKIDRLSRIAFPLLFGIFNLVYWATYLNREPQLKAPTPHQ
UniProt P14867, 28-456 F316S limits assumed: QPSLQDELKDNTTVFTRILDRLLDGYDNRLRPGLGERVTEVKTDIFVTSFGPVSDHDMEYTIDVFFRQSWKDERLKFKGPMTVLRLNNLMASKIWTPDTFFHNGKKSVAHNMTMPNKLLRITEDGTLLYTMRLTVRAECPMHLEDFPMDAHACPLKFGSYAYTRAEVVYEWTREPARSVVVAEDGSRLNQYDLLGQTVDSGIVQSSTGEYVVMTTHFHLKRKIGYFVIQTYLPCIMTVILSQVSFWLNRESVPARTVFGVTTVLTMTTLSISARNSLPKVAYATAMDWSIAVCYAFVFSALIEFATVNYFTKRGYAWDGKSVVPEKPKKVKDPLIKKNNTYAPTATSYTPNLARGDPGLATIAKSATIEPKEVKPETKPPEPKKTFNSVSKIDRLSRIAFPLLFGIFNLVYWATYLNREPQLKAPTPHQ
UniProt P18507, 40-475 limits assumed: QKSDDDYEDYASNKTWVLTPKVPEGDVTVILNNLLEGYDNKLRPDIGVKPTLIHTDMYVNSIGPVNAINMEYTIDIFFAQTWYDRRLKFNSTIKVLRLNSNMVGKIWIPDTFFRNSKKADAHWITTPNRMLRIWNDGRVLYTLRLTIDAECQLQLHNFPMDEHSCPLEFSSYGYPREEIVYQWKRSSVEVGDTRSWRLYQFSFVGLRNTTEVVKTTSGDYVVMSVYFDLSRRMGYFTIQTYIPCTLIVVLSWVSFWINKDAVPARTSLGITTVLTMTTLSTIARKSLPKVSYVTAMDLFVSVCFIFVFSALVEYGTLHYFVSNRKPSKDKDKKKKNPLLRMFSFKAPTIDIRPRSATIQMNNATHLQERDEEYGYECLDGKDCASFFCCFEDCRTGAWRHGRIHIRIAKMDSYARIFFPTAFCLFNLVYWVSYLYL
UniProt P18505, 26-474 limits assumed: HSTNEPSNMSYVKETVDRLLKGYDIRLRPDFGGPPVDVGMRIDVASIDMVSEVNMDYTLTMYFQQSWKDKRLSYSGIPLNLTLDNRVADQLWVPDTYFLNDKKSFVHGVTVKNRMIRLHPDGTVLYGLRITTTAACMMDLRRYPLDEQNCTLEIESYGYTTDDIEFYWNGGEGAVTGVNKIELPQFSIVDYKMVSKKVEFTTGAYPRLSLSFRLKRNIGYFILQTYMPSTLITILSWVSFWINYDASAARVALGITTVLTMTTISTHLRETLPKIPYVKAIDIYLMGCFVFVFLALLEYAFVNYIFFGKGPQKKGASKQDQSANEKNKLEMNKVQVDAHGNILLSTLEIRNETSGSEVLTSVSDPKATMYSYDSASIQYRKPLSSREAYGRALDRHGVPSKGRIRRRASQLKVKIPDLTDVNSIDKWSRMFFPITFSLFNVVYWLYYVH
UniProt P18505, 26-474 S290N limits assumed: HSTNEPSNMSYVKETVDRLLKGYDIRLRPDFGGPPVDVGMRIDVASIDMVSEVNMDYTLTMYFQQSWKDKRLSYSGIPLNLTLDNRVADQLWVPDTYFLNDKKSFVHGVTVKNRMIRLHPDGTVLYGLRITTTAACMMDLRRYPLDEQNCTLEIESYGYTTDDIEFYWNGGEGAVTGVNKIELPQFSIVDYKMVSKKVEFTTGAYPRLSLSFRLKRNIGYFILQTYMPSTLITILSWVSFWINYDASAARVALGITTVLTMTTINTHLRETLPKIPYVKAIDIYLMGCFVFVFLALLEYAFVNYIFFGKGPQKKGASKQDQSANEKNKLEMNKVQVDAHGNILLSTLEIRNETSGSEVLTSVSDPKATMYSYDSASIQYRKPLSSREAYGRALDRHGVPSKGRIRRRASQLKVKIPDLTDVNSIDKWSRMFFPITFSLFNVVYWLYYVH
UniProt P28472, 26-473 N290S limits assumed: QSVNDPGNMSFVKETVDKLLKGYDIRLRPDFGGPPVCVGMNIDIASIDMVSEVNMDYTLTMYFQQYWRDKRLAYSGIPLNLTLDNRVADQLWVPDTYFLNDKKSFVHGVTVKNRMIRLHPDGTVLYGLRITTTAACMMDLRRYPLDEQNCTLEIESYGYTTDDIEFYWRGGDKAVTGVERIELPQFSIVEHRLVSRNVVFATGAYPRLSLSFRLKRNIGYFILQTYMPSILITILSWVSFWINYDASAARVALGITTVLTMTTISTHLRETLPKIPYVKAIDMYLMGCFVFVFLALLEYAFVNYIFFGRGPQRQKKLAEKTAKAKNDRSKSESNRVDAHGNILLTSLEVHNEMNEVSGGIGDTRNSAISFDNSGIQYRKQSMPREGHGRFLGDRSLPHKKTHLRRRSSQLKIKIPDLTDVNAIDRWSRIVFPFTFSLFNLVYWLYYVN
UniProt P28472, 26-473 limits assumed: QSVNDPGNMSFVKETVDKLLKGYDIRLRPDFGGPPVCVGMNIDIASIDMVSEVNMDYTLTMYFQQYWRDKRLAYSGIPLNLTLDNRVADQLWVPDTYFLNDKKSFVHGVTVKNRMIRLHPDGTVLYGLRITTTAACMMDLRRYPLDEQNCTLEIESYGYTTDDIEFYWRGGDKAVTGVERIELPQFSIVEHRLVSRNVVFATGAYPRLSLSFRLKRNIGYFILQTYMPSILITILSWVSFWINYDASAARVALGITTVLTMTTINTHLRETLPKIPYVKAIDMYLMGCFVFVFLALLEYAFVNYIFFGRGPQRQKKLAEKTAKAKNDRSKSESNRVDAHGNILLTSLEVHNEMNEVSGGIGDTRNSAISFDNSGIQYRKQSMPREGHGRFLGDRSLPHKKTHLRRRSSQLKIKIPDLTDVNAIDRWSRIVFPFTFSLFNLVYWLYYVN
UniProt P47870, 26-512 limits assumed: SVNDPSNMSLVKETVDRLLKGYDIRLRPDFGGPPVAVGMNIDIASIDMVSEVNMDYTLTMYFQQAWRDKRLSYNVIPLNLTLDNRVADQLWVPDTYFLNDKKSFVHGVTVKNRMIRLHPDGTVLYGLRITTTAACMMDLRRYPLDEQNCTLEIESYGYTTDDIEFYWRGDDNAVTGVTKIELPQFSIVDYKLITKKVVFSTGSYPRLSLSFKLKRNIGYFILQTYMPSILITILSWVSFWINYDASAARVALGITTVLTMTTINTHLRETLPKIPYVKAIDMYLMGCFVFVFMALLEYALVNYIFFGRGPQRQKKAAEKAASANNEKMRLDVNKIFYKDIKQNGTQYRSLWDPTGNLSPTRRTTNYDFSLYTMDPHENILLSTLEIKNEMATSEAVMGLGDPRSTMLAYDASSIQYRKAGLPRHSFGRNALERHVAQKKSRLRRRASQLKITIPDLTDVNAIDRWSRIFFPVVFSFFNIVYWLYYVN

Legend:
[1] = target: GABA A receptor alpha-1/beta-1/gamma-2 (Homo sapiens, UniProt P14867+P18507+P18505); format: cell-based
[2] = target: GABA-A receptor; alpha-1/beta-3/gamma-2 (Homo sapiens, UniProt P14867+P18507+P28472, N265S)
[3] = target: GABA-A receptor; alpha-1/beta-2/gamma-2 (Homo sapiens, UniProt P14867+P47870+P18507)
[4] = test system: Oocyte; test: Induction of current in Xenopus laevis oocytes at 10 to 100 uM after 5 mins by two-microelectrode voltage clamp method; format: cell-based
[5] = target: GABA-A receptor; alpha-1/beta-3/gamma-2 (Homo sapiens, UniProt P14867+P18507+P28472, F289S)
[6] = target: GABA-A receptor; alpha-1/beta-3/gamma-2 (Homo sapiens, UniProt P14867+P18507+P28472)
[7] = target: GABA A receptor alpha-1/beta-1/gamma-2 (Homo sapiens, UniProt P14867+P18507+P18505, S290N); format: cell-based

CC(=C(C#N)C#N)c1ccc(Cl)cc1Cl
EC50 [1]: 98 µM | EC50 [2]: 24 µM | EC50 [3]: 11 µM | Activity [4]: Non-Toxic | EC50 [5]: 52 µM | EC50 [6]: 13 µM | EC50 [7]: 11 µM
